From patent US4393178A, “Fast crystallizing polyester compositions” (priority 1979, dated 1983)

Assay: Solubility parameter δ of the acid; also: unit not given here
Conditions: product for the acid

SMILES | δ × pKH.sbsb.2O
O=C(O)c1ccccc1O [ortho-ONa-benzoic acid] | 42
O=C(O)c1ccccc1O [ortho-hydroxy benzoic acid] | 42
